# The list shows a part of the results, in another mix than the full data. Calls of active or inactive are those of the source. Cut-off read from the data, not from the text of the source: active = inhibition above about 50%; inactive = the rest.
# Assay: inhibitors of induced NF-kB luciferase reporter, primary screen, TCR NF-kB activation inhibitor project, cell-based, luminescence, uHTS (AID 435003)
# Conditions: Jurkat, PMA/ionomycin-induced NF-kB luciferase reporter, at 4 µM, stronger effect = higher value
row,Structure (SMILES),inhibition
1,CN(C(=O)Cc1ccc(Cl)c(Cl)c1)[C@H]1CCCC[C@@H]1N1CCCC1,inactive: 4.68%
2,Cc1ccc(NP(=O)(Oc2ccccc2F)Oc2ccccc2F)nc1,inactive: 1.93%
3,CCOP(=O)(Nc1ccccc1)OCC,inactive: -24.9%
4,Cc1cc(SC(NC(=O)c2ccc(F)cc2)C(Cl)(Cl)Cl)ncn1 (stereo not given),inactive: -3.29%
5,O=C(O)c1ccccc1[As](=O)(O)O,inactive: -18.1%
6,CC(=O)Nc1ccc([As](=O)(O)O)cc1,inactive: 3.67%
7,O=P(Nc1nc2ccc(Cl)cc2s1)(c1ccccc1)c1ccccc1,inactive: 7.38%
8,CCN(N=Nc1nonc1N)c1nonc1N,inactive: 9.4%
9,O=[N+]([O-])c1cc([N+](=O)[O-])c(CCN2CCOCC2)c([N+](=O)[O-])c1,inactive: -3.98%
10,Cc1ccc(OP(=O)(Nc2nccs2)Oc2ccc(C)cc2)cc1,inactive: 10.5%
11,COc1ccccc1OP(=O)(Nc1ccc(C)cn1)Oc1ccccc1OC,inactive: 9.83%
12,Clc1ccc(Cl)c(NC2=NCC(CBr)S2)c1 (stereo not given),inactive: 7.8%
13,CN1CCCC(OC(=O)C(c2ccccc2)c2ccccc2)C1 (stereo not given),inactive: 3.05%
14,NC(=O)c1cc([N+](=O)[O-])cc([N+](=O)[O-])c1N,inactive: -8.65%
15,Cc1ccc(N/C(=N/P(=O)(N2CCOCC2)N2CCOCC2)N2CCOCC2)cc1,inactive: 3.06%
16,CN(C(=O)Cc1ccc(Cl)c(Cl)c1)[C@H]1CCCC[C@H]1N1CCCC1,inactive: 3.58%
17,CC(C)CC(=O)NC(Sc1ccc(Cl)cc1)C(Cl)(Cl)Cl (stereo not given),inactive: -24.5%
18,Nc1cc(N)c2nonc2c1[N+](=O)[O-],inactive: 5.61%
19,Cc1c2non([O-])c-2c(C)[n+](=O)[n+]1[O-],inactive: 11.4%
20,O=C(NC(Sc1ccncn1)C(Cl)(Cl)Cl)c1ccccc1 (stereo not given),inactive: 2.78%
21,Oc1ccccc1CNc1ccccn1,inactive: -10.4%
22,CC(=O)N1C2C3N(C(C)=O)C1C1N(C(C)=O)C(C(N1C(C)=O)N3C(C)=O)N2C(C)=O,inactive: -4.28%

row,Structure (SMILES),inhibition
1,O=[N+]([O-])c1cccc2n[nH]nc12,inactive: -2.68%
2,O=[N+]([O-])c1cc([N+](=O)[O-])c(CCNc2ccccc2)c([N+](=O)[O-])c1,inactive: -5.17%
3,CCc1nc2c(n1)c1c(non1O)c1c2no[n+]1[O-],inactive: 30.1%
4,Cc1ccc(NP(=O)(Oc2ccccc2)Oc2ccccc2)nc1,inactive: 1.56%
5,COc1ccc(C2=NCC(CBr)S2)cc1 (stereo not given),inactive: 7.16%
6,CN(C)C(=O)OCCc1n(C)cc[n+]1C,inactive: 3.63%
7,CC(C)=N/N=C(\N)N[N+](=O)[O-],inactive: -2.76%
8,CC1CCN(C(=O)Oc2c(Cl)cc(Cl)c3cccnc23)CC1,inactive: -7.87%
9,C[N+]1=C2C=CC=CC=C2SC12C([N+](=O)[O-])=CC([N+](=O)[O-])=C[C-]2[N+](=O)[O-] (stereo not given),inactive: -11.6%
10,Nc1ccc([As](=O)(O)c2ccc(N)cc2)cc1,inactive: -1.43%
11,CCN(/C(=N/P(=O)(N1CCOCC1)N1CCOCC1)N1CCOCC1)c1ccc(OC)cc1,inactive: 1.45%
12,O=C(Nc1cc([As](=O)(O)O)ccc1O)c1ccccc1,inactive: -1.67%
13,O=[N+]([O-])c1cccc(NC2=NCC(CBr)S2)c1 (stereo not given),inactive: 1.23%
14,CC(C)(C)C(=O)NC(Sc1ccncn1)C(Cl)(Cl)Cl (stereo not given),inactive: -7.54%
15,O=[N+]([O-])c1ncn(CCn2ncnc2[N+](=O)[O-])n1,inactive: -0.653%
16,C[C@H]1OP(=O)(Oc2ccccc2)[C@H](O)[C@H](O)[C@H]1N=[N+]=[N-] (stereo not given in full),inactive: -4.65%
17,O=P(Nc1nc2ccccc2s1)(c1ccccc1)c1ccccc1,inactive: 2.77%
18,CN(C)C1(CNC(=O)c2ccc(Cl)c(S(N)(=O)=O)c2)CCCCC1,inactive: -30%
19,O=P(Nc1ccccn1)(c1ccc(Br)cc1)c1ccc(Br)cc1,inactive: 5.69%
20,Nc1ccc([As](=O)(O)c2ccc([N+](=O)[O-])cc2)cc1,inactive: -0.365%
21,C(Cc1nn[nH]n1)Cc1nn[nH]n1,inactive: 9.47%
22,O=C(OC1CN2CCC1CC2)c1cccc(Cl)c1 (stereo not given),inactive: 10.1%

row,Structure (SMILES),inhibition
1,O=[N+]([O-])c1ncn(CCn2cnc([N+](=O)[O-])n2)n1,inactive: 6.39%
2,O=[As](O)(c1ccccc1)c1ccc(O)cc1,inactive: -1.42%
3,c1nnnn1CCn1cnnn1,inactive: -6.66%
4,O=P(Nc1nccs1)(c1ccccc1)c1ccccc1,inactive: -8.11%
5,CC(C)C(=O)NC(Sc1ccccc1)C(Cl)(Cl)Cl (stereo not given),inactive: -3.95%
6,CC(C)(C)C(=O)NC(Sc1ccccc1)C(Cl)(Cl)Cl (stereo not given),inactive: -7.17%
7,CCOc1ccc(C2=NCC(CBr)S2)cc1 (stereo not given),inactive: 9.02%
8,O=P1(Nc2nc3ccc(Cl)cc3s2)COc2ccccc2O1 (stereo not given),inactive: 2.83%
9,CC(=O)Nc1ccc(Oc2c([N+](=O)[O-])cc([N+](=O)[O-])cc2[N+](=O)[O-])cc1,inactive: 5.18%
10,CC(=O)Nc1ccc([As](=O)(O)O)c(O)c1,inactive: -15.7%
11,CC(=O)c1ccc(N2CC2c2ccncc2)cc1 (stereo not given),inactive: 12.3%
12,C[C@@H]1C=CCP(=O)(Oc2ccccc2)O1 (stereo not given in full),inactive: 3.07%
13,C[C@H]1OP(=O)(Oc2ccccc2)C[C@@H]2O[C@@H]21 (stereo not given in full),inactive: -4.28%
14,Cc1ccccc1CN(C)C(=O)COC(=O)C(O)(c1ccccc1)c1ccccc1,inactive: -6.26%
15,O=C(NC1CCS(=O)(=O)C1)NP(=S)(Oc1ccccc1)Oc1ccccc1 (stereo not given),inactive: 3.06%
16,CCNC(=S)/N=C(\N)N[N+](=O)[O-],inactive: 18.1%
17,CCOC(=O)NC(Sc1ccccc1)C(Cl)(Cl)Cl (stereo not given),inactive: 0.507%
18,Cc1ccc(NP(=O)(Oc2cccc(C)c2)Oc2cccc(C)c2)nc1,inactive: -21.1%
19,c1ccc(-c2nn[nH]n2)c(-c2nn[nH]n2)c1,inactive: -7.26%
20,CN(C)C(=O)Oc1noc2ccccc12,inactive: -12.8%
21,Cc1ccccc1OP(=O)(Nc1ccccn1)Oc1ccccc1C,inactive: 9.36%
